# Patent publication US11932872B2, “Dual chimeric antigen receptor-t cell which can be regulated, construction method therefor and use thereof” (NANJING ANJI BIOLOGICAL TECHNOLOGY CO., LTD, priority 2017, dated 2024)
# Test system: MSLN+K562 target cells (mixed 1:1 with CEA+K562)
# Assay: Cytotoxicity test of sdCAR-T cells in vitro
# Assay type: cell-based, human
# Settings: effector:mixed target cells 5:2, 22 h, flow cytometry
# Procedure: This example verified the killing activity of the constructed sdCAR-T cells on tumor cells in vitro, and the selected target cells were MSLN single positive tumor cells and single positive tumor cells of negative control CEA. A total of four test groups were designed, each group had three parallel wells, and the design of the test group was the same as that of Example 6.
# The cytotoxicity of sdCAR-T cells was determined according to the survival rate of target cells (MSLN^+K562). The selected target cells were equal mixed cells of MSLN and CEA. Because the constructed sdCAR-T cells had strong tumor specificity, CEA tumor cells were used as a negative control group, and the purpose of setting equal numbers of MSLN single positive cells and CEA single positive cells was to accurately and conveniently calculate the survival rate of MSLN tumor cells in each test group at each time. The survival rate of MSLN target cells in each test group was calculated according to the following formula, and then the tumor killing ability of the constructed CARs-T cells in vitro could be analyzed. […]
# 3) The ratio of MSLN and CEA tumor cells in each test group was detected by a flow cytometer, and then the survival rate of MSLN target cells was calculated.
substance,measurement,value
FHBM: FITC and polypeptide HM-3 coupled to form a bifunctional small molecule; exogenous switching molecule for sdCAR-T cells (IVRRADRAAVPGGGGRGD),survival rate of MSLN tumor cells,28.74%
